By IC50 is commonly meant the concentration that gives 50% inhibition.

The chains behind the UniProt entries cited, without tags or fusion partners. Residues count along the entry.
UniProt Q13231, 22-466: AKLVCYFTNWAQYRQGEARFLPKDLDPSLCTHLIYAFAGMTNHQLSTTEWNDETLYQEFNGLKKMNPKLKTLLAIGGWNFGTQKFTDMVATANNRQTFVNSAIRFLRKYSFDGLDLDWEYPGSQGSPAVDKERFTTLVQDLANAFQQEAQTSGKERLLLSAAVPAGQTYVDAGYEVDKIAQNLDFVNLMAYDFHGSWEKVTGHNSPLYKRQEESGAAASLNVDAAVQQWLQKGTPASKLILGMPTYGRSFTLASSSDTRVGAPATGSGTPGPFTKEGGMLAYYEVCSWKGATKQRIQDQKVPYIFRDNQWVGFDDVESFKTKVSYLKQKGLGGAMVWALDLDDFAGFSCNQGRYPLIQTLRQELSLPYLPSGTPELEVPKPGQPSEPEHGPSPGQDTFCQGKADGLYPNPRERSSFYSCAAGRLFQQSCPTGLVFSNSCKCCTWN

The results in this text go back to patent US10538508B2 (dated 2020).

In the test the target is recombinant human CHIT1 (Homo sapiens (Human), UniProt Q13231). The test can be described thus: Human CHIT1 Activity Assay. It is filed as biochemical. Particulars: read-out: Activity on hCHIT1, IC50; recombinant human CHIT1, citrate buffer pH 5.2, 37° C., 60 minutes.

In the case of `NC(=O)[C@H]1CN(C2CCN(c3nnc(N)[nH]3)CC2)[C@@H](Cc2ccc(Cl)cc2)CO1` [Example 9, (2R,5S)-4-(1-(5-amino-4H-1,2,4-triazol-3-yl)piperidin-4-yl)-5-(4-chlorobenzyl)morpholine-2-carboxamide], the IC50 is less than 0.1 µM.
